Source: article PMC5539068, “Structural optimization and evaluation of novel 2-pyrrolidone-fused (2-oxoindolin-3-ylidene)methylpyrrole derivatives as potential VEGFR-2/PDGFRβ inhibitors” (Chemistry Central Journal, 2017)

Columns and labels:
HUVEC cells = assay: In-vitro VEGF-induced Matrigel tube formation assay; assay type: cell-based, human; conditions: versus sunitinib
Description: The in vitro tube formation assay was assessed using ibidi μ-Slides (15-well, ibidi GmbH, Martinsried, Germany) in accordance with manufacturer’s protocol. Briefly, growth factor reduced Matrigel (10 μl) (Sigma, St. Louis MO) was added to the inner well of ibidi μ-Slides, and incubated at 37 °C for 1 h. […] 10,000 HUVEC cells in 50 μl of above growth medium was added to Matrigel (Sigma, St. Louis MO, USA) coated ibidi μ-Slides. After 6 h of incubation at 37 °C, the supernatant was discarded, and 50 μl of serum-free medium with diluted calcein AM (6.25 μg/ml) was added to above ibidi μ-Slides. After incubation in the dark at room temperature for 30 min, the μ-Slides were washed with PBS (50 μl) and fluorescence pictures were taken at 485 nm with a Leica DM1000 LED microscope (Leica Microsystems, Wetzlar, Hessen, Germany).

HCT116 cells = assay: Cell proliferation assay (MTT), HCT116; conditions: versus Detroit 551

With `CCN(CC)CCN1Cc2[nH]c(/C=C3\C(=O)Nc4ccc(S)cc43)c(C)c2C1=O` [Compound 15, (Z)-3-((5-(2-(diethylamino)ethyl)-3-methyl-4-oxo-1,4,5,6-tetrahydropyrrolo[3,4-b]pyrrol-2-yl)methylene)-5-mercaptoindolin-2-one] the “potency in inhibiting in vitro tube formation relative to sunitinib in terms of IC50” value (HUVEC cells) was “threefold stronger” and the “selective index (SI) HCT116” value (HCT116 cells) was over 4.27.
